Measurements from ChEMBL document CHEMBL1138773, “Design and synthesis of aryl diphenolic azoles as potent and selective estrogen receptor-beta ligands” (J Med Chem, 2004).

By UniProt entry, the sequences of proteins in these tests, tags left out.
UniProt P19785, whole entry: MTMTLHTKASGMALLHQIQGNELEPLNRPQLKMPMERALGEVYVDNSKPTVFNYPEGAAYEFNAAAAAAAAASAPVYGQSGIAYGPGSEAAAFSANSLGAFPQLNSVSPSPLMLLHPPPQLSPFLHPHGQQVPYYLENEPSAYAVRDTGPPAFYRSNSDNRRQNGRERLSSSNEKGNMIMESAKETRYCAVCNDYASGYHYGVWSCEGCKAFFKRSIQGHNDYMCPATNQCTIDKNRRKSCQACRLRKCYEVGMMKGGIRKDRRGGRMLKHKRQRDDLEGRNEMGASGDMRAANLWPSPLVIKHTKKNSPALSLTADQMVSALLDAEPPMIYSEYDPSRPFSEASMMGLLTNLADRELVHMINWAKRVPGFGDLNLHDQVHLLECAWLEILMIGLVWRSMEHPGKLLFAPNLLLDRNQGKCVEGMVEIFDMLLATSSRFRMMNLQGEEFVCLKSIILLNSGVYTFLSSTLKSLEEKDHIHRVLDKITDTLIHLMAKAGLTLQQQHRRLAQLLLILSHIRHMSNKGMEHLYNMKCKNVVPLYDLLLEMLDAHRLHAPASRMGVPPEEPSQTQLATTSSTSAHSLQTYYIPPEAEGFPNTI

Biological target: Estrogen receptor (Mus musculus, UniProt P19785)

In the case of `N#Cc1cc(O)cc2nc(-c3ccc(O)cc3)oc12`, the pIC50 was 6.37.

pIC50: −log10 of the molar value.
